Ab-14 heavy chain CDR variants: yeast mating affinities

Target: peptide PDVDLGDISGINAS, taken from heptad repeat 2 (HR2) of SARS-CoV-2 spike.

Parent scFv Ab-14: VH joined to VL by three GGGGS repeats. Changes lie in the heavy chain CDRs alone.
VH: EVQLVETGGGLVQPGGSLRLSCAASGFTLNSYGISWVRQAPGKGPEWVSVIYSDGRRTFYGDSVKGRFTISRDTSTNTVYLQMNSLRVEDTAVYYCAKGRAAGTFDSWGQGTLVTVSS
VL: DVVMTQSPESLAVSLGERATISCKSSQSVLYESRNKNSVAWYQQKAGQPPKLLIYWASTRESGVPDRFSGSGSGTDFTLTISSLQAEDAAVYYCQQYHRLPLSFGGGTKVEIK

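Phage display of a naive human antibody library on the peptide gave the parent. AAYL49 was designed without a model: most single CDR substitutions and a random sample of double and triple ones. Affinity was read by AlphaSeq, a pooled yeast mating assay with surface-displayed partners. Pairs that bind mate more often; barcode pairs of the diploids are counted by sequencing. Read counts were normalised to the haploid input and turned into Kd by a linear fit to BCL2-family pairs of known affinity, for each replicate. Mating was done three times.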

Variants are written as CDR1, CDR2 and CDR3 of the heavy chain (limits as in the source). Parent: GFTLNSYGIS, VIYSDGRRTFYGDSVK, GRAAGTFDS. Values are log10 of the apparent Kd in nM; lower means stronger binding. The mean shown is taken over the replicates in which the pair was detected. An entry "n.d." has no value in the source: the pair was not observed among the diploids in that replicate. This suggests poor binding but is not conclusive. Nonspecific signal, from three strains lacking the peptide, appeared in 15% of pairings of library AAYL49, centred on 4.06 (5% of these signals below 2.83); values are not corrected for it. The control count says in how many pairings with the empty strains this scFv gave a signal, with their mean in brackets.

{"CDR-H1": "GFTLNSYGIS", "CDR-H2": "VIYSDRRRTFYGDVVK", "CDR-H3": "GRGAGTFDS", "replicates, log10 nM": "3.46 n.d. n.d.", "mean log10 Kd (nM)": "3.46", "signal with controls": "6/9 (4.39)"}
{"CDR-H1": "GFTLNSYGGS", "CDR-H2": "VIASDGRRTFYGDSVK", "CDR-H3": "ARAAGTFDS", "replicates, log10 nM": "n.d. n.d. n.d.", "mean log10 Kd (nM)": "n.d.", "signal with controls": "1/9 (4.12)"}
{"CDR-H1": "GFTLCSYGIS", "CDR-H2": "VIYSDGQRTFYGDSVK", "CDR-H3": "ARAAGTFDS", "replicates, log10 nM": "1.79 n.d. 2.18", "mean log10 Kd (nM)": "1.98", "signal with controls": "1/9 (3.95)"}
{"CDR-H1": "GFTLESAGIS", "CDR-H2": "VIYSDGRRTFYGPSVK", "CDR-H3": "GRAAGTFDS", "replicates, log10 nM": "n.d. 4.15 n.d.", "mean log10 Kd (nM)": "4.15", "signal with controls": "2/9 (4.92)"}
{"CDR-H1": "GFTLNSYGIS", "CDR-H2": "VITSDGRRTFYMMSVK", "CDR-H3": "GRAAGTFDS", "replicates, log10 nM": "n.d. n.d. n.d.", "mean log10 Kd (nM)": "n.d.", "signal with controls": "0/9"}
{"CDR-H1": "GFTDNSYGIS", "CDR-H2": "VIGSDGRRTFYGDSVK", "CDR-H3": "GRAPGTFDS", "replicates, log10 nM": "n.d. n.d. n.d.", "mean log10 Kd (nM)": "n.d.", "signal with controls": "1/9 (2.23)"}
{"CDR-H1": "NFTLNSYGIS", "CDR-H2": "VIYSDGRRTFYGDSVK", "CDR-H3": "GRAAGGMDS", "replicates, log10 nM": "n.d. 3.48 n.d.", "mean log10 Kd (nM)": "3.48", "signal with controls": "2/9 (4.19)"}
{"CDR-H1": "GFTLNSYGIS", "CDR-H2": "VIYSDGRRTLYGDSVK", "CDR-H3": "GYAAGTFLS", "replicates, log10 nM": "4.26 n.d. n.d.", "mean log10 Kd (nM)": "4.26", "signal with controls": "1/9 (3.11)"}
{"CDR-H1": "GFTLNSPGIS", "CDR-H2": "VIYSDGRCTFYGDSVK", "CDR-H3": "GRAAGTFDS", "replicates, log10 nM": "n.d. n.d. n.d.", "mean log10 Kd (nM)": "n.d.", "signal with controls": "1/9 (4.23)"}
{"CDR-H1": "GVTLNSYGIS", "CDR-H2": "VIQSDGRRTFYGDSVK", "CDR-H3": "GRAAKTFDS", "replicates, log10 nM": "5.06 n.d. n.d.", "mean log10 Kd (nM)": "5.06", "signal with controls": "4/9 (4.22)"}
{"CDR-H1": "GFTLNSYGIS", "CDR-H2": "VIYSMGRRTFYGDSVK", "CDR-H3": "GVAAGTFTS", "replicates, log10 nM": "2.03 n.d. n.d.", "mean log10 Kd (nM)": "2.03", "signal with controls": "2/9 (3.06)"}
{"CDR-H1": "GFYLNSWGIS", "CDR-H2": "VIYSDGRRTFYGDSVK", "CDR-H3": "GRAAQTFDS", "replicates, log10 nM": "n.d. n.d. n.d.", "mean log10 Kd (nM)": "n.d.", "signal with controls": "0/9"}
{"CDR-H1": "GFTANSYGIS", "CDR-H2": "VIYSDGRRTFYGDSVK", "CDR-H3": "GRAAGTFDL", "replicates, log10 nM": "1.57 1.75 2.12", "mean log10 Kd (nM)": "1.81", "signal with controls": "2/9 (4.29)"}
{"CDR-H1": "GFTLNSYGIS", "CDR-H2": "VIYSDGLRTFYGDSAK", "CDR-H3": "GRAAGAFDS", "replicates, log10 nM": "3.91 2.61 3.99", "mean log10 Kd (nM)": "3.50", "signal with controls": "2/9 (4.20)"}
{"CDR-H1": "GFVLNSYGIS", "CDR-H2": "VIYSDGRRVFYGDSVM", "CDR-H3": "GRAAGTFDS", "replicates, log10 nM": "3.82 4.68 2.33", "mean log10 Kd (nM)": "3.61", "signal with controls": "2/9 (3.71)"}
{"CDR-H1": "GFFLNSYGIS", "CDR-H2": "DIYSDGNRTFYGDSVK", "CDR-H3": "GRAAGTFDS", "replicates, log10 nM": "n.d. n.d. n.d.", "mean log10 Kd (nM)": "n.d.", "signal with controls": "1/9 (3.03)"}
{"CDR-H1": "GFTLNSYGIS", "CDR-H2": "VCWSDGRRTFYGASVK", "CDR-H3": "GRAAGTFDS", "replicates, log10 nM": "n.d. n.d. n.d.", "mean log10 Kd (nM)": "n.d.", "signal with controls": "1/9 (3.68)"}
{"CDR-H1": "GFTLNNYGWS", "CDR-H2": "VIYSDGRRTFYGDSVK", "CDR-H3": "GRAAGTNDS", "replicates, log10 nM": "3.40 3.38 n.d.", "mean log10 Kd (nM)": "3.39", "signal with controls": "3/9 (3.36)"}
{"CDR-H1": "CFTLNSYGIR", "CDR-H2": "WIYSDGRRTFYGDSVK", "CDR-H3": "GRAAGTFDS", "replicates, log10 nM": "5.28 3.74 3.43", "mean log10 Kd (nM)": "4.15", "signal with controls": "3/9 (4.07)"}
{"CDR-H1": "GFTLNSYGIS", "CDR-H2": "VIYSDGRRTCYGDSVK", "CDR-H3": "GRAVGTFHS", "replicates, log10 nM": "n.d. n.d. n.d.", "mean log10 Kd (nM)": "n.d.", "signal with controls": "0/9"}
{"CDR-H1": "GFTLNSYGIS", "CDR-H2": "VIYSDGRGTFYGDSHK", "CDR-H3": "GRPAGTFDS", "replicates, log10 nM": "n.d. n.d. n.d.", "mean log10 Kd (nM)": "n.d.", "signal with controls": "5/9 (4.83)"}
{"CDR-H1": "GFTLNSYGIS", "CDR-H2": "VIYSDGRRTFYGDSVK", "CDR-H3": "RRAHGTFDS", "replicates, log10 nM": "0.92 0.96 0.88", "mean log10 Kd (nM)": "0.92", "signal with controls": "4/9 (4.73)"}
{"CDR-H1": "GLTLNSYGRS", "CDR-H2": "TIYSDGRRTFYGDSVK", "CDR-H3": "GRAAGTFDS", "replicates, log10 nM": "n.d. n.d. n.d.", "mean log10 Kd (nM)": "n.d.", "signal with controls": "0/9"}
{"CDR-H1": "GFTLNSYGIS", "CDR-H2": "VIYSDTRRTFYGDQVK", "CDR-H3": "GPAAGTFDS", "replicates, log10 nM": "4.18 4.70 5.05", "mean log10 Kd (nM)": "4.64", "signal with controls": "3/9 (3.88)"}
{"CDR-H1": "GFTLNSYGIS", "CDR-H2": "VIYSDGRRTFYGDSVG", "CDR-H3": "GRAAYTADS", "replicates, log10 nM": "n.d. n.d. 3.27", "mean log10 Kd (nM)": "3.27", "signal with controls": "0/9"}
{"CDR-H1": "GFTLNSYGIS", "CDR-H2": "VIYHDGRRTFTGDSVK", "CDR-H3": "GRAAGTFDS", "replicates, log10 nM": "3.27 3.59 3.42", "mean log10 Kd (nM)": "3.43", "signal with controls": "1/9 (5.11)"}
{"CDR-H1": "GFTLNLYGIS", "CDR-H2": "VIYSDGRRTRYGDSVK", "CDR-H3": "GRAAGQFDS", "replicates, log10 nM": "n.d. n.d. n.d.", "mean log10 Kd (nM)": "n.d.", "signal with controls": "2/9 (4.27)"}
{"CDR-H1": "GDTLNSYGIS", "CDR-H2": "QIYSYGRRTFYGDSVK", "CDR-H3": "GRAAGTFDS", "replicates, log10 nM": "n.d. n.d. n.d.", "mean log10 Kd (nM)": "n.d.", "signal with controls": "0/9"}
{"CDR-H1": "GFTLNSYGIS", "CDR-H2": "WSYSDGRRTFYGDSVK", "CDR-H3": "GRAAGTFDA", "replicates, log10 nM": "n.d. n.d. n.d.", "mean log10 Kd (nM)": "n.d.", "signal with controls": "0/9"}
{"CDR-H1": "GFKLNSYGIS", "CDR-H2": "VIYGDGRRTFYGDSNK", "CDR-H3": "GRAAGTFDS", "replicates, log10 nM": "n.d. n.d. n.d.", "mean log10 Kd (nM)": "n.d.", "signal with controls": "0/9"}
{"CDR-H1": "VFTLNSYGRS", "CDR-H2": "VAYSDGRRTFYGDSVK", "CDR-H3": "GRAAGTFDS", "replicates, log10 nM": "n.d. n.d. n.d.", "mean log10 Kd (nM)": "n.d.", "signal with controls": "2/9 (4.09)"}

Again, the first 4 entries without any signal:

{"CDR-H1": "GFTLNSYGGS", "CDR-H2": "VIASDGRRTFYGDSVK", "CDR-H3": "ARAAGTFDS", "replicates, log10 nM": "n.d. n.d. n.d.", "mean log10 Kd (nM)": "n.d.", "signal with controls": "1/9 (4.12)"}
{"CDR-H1": "GFTLNSYGIS", "CDR-H2": "VITSDGRRTFYMMSVK", "CDR-H3": "GRAAGTFDS", "replicates, log10 nM": "n.d. n.d. n.d.", "mean log10 Kd (nM)": "n.d.", "signal with controls": "0/9"}
{"CDR-H1": "GFTDNSYGIS", "CDR-H2": "VIGSDGRRTFYGDSVK", "CDR-H3": "GRAPGTFDS", "replicates, log10 nM": "n.d. n.d. n.d.", "mean log10 Kd (nM)": "n.d.", "signal with controls": "1/9 (2.23)"}
{"CDR-H1": "GFTLNSPGIS", "CDR-H2": "VIYSDGRCTFYGDSVK", "CDR-H3": "GRAAGTFDS", "replicates, log10 nM": "n.d. n.d. n.d.", "mean log10 Kd (nM)": "n.d.", "signal with controls": "1/9 (4.23)"}

Reference: Engelhart et al. 2022, doi:10.1038/s41597-022-01779-4. File: FLAb, binding data.